{"source": "patent US20260216229A1", "about": "“PROGRAMMABLE DNA PROTEOLYSIS TARGET CHIMERAS AND METHODS OF THEIR USE” (ARIZONA BOARD OF REGENTS ON BEHALF OF ARIZONA STATE …, priority 2023, published 2026)", "target": "T1, CDK4 (Homo sapiens, UniProt P11802)", "T1 construct": "Dose- and Time-dependent Degradation of CDK6 and CDK4 in U251 Cells; endogenous in cells; host or cells: U-251 MG (U251) glioblastoma cells", "assay": "Western blot of CDK4 degradation in U251 cells transfected with DNA-PROTACs", "type": "cell-based", "description": "U-251 MG Glioblastoma Cell Line was grown in Dulbecco's Modified Eagles Medium (DMEM) containing 10% heat inactivated fetal bovine serum (FBS), streptomycin (5 μg/mL) and 5 U/mL penicillin 95 U/mL). All cell lines were maintained, and cell culture experiments were carried out in humidified incubators at 37° C. and 5% CO2 supplementation.\nOne day prior to DNA-PROTACs transfection, cells were propagated into 6 cm cell culture dishes containing appropriate complete growth medium. Prior to transfection, complete medium was replaced with transfection medium (5% FBS, no Penstrep). DNA-PROTACs transfection was performed using lipofectamine 3000 reagent according to the protocols provided by the manufacture. All transfections were carried out in 6-cm dishes with 3 mL of media and concentrations of DNA-PROTACs were calculated according to this volume (3 mL). Briefly, for 50 nM concentration, 5 μL from a 30 µM DNA-PROTACs stock and 12 μL p3000 reagent was added to a tube containing 125 μL of OPTIM-MEM and 8 μL of Lipofectamine 3000 reagent was added to a separate tube containing 125 μL of OPTIM-MEM. Two tubes were incubated for 5 minutes at room temperature and DNA-PROTACs containing OPTI-MEM was then slowly added to the second tube with lipo3000. The solution in the tube was mixed well by pipetting up and down several times. After incubating for 15-20 minutes at room temperature, 250 μL of DNA-PROTACs-lipofectamine complex was added drop wise onto cells containing the transfection medium. Transfection medium was mixed well before transferring the plate into the incubator. After appropriate time, cells were either harvested or replaced with fresh medium and incubated for desired time point prior to harvesting. For proteasome inhibition assay, 5 μM of MG-132 was incubated with cells for 2 h prior to transfection of DNA-PROTACs. […]\nProtein concentration in all the cell lysates were measured by BCA protein assay kit and equal amounts from each lysate were mixed with 4×loading dye and boiled for 5 minutes followed by 2 minutes centrifugation prior to loading into SDS-PAGE gel. […]", "data": [{"substance": "DNA-PROTAC-V02: DNA duplex of E3-i (pomalidomide) strand SEQ ID NO 3 and POI-i (palbociclib) strand SEQ ID NO 4 (chain 1 ACTCCATCTANTTCTACGCCA; chain 2 TGGCGTAGAANTAGATGGAGT; pomalidomide and palbociclib conjugated; modified_base 1 OTHER; Nucleotide with phosphorothioate linkage; modified_base 2 OTHER; modified_base 3 OTHER; misc_difference 11 E3 ligase attached to 3-Dimethoxytrityloxy-2-(3-(fluorenylmethoxycarbonylamino)propanamido)propyl-1-O-(2-cyanoethyl)-(N,N-diisopropyl)-phosphoramidite modified adenosine, cytidine, thymi; m)", "values": [{"measurement": "time for which CDK4 degradation was sustained", "setting": "50 nM, time course", "value": "up to 48 hours"}, {"measurement": "treatment time after which CDK4 degradation commenced", "setting": "50 nM, time course", "value": 48, "unit": "h"}, {"measurement": "concentration at which reduction in CDK4 protein levels is initiated", "setting": "dose series", "value": 40, "unit": "nM"}]}]}
